Consider one molecule from US20200223889A1, “Bicyclic Compounds Capable of Binding to Melanocortin 4 Receptor” (Novo Nordisk A/S, priority 2017, published 2020).

Sequences of proteins named here, by UniProt entry; tags and fusion partners are left off. A change or cut given only in a name is not applied to a line headed by its entry.
UniProt Q01726: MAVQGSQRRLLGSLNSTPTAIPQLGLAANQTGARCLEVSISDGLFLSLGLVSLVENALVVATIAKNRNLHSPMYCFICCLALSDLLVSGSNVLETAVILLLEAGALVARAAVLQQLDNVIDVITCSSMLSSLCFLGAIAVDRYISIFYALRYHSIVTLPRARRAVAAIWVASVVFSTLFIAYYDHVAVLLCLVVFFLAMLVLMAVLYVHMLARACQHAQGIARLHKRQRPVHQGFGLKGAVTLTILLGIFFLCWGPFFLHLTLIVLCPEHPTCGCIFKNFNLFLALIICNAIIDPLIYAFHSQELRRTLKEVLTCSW

For this assay, the target named is T1, human MC1R (Homo sapiens, UniProt Q01726).
T1 construct: expressed in transfected cells
The assay is described as follows: Functional cAMP assay (CisBio HTRF) in BHK cells expressing human MC1R. It is filed as cell-based. As for the experimental part:
In order to assess the potency of the compounds on human MC1R and human MC4R cAMP signalling was measured.
cAMP induction was measured by c-AMPdynamic2 assay, HTRF 62AM4PEC system from CisBio for the human MC1R and human MC4R according to the protocol provided by the vendor. BHK cells expressing the human MC1 or MC4 receptor were generated by stable transfection with expression vectors encoding the cDNA of either MC1R or MC4R.
In details; 25 μl compound—or standard solution were added in the respective wells. Compound was reconstituted in buffer (DMEM w/o phenol red, 10 mM
Hepes, lx Glutamine, 0.1% OV-albumin1, 1 mM IBMX) and serially diluted starting at 2 μM, 10-fold seven times. Dilutions were carried out in the same aforementioned buffer to the desired working concentration ranges (2× higher than the final concentration). 25 μl cell solution was then added and allowed to incubate for 30 min while lightly shaking, at 25° C. […]
Plates were centrifuged at 1500 rpm for 30 sec and incubated for 1 h, lightly shaking, at 25° C. in a hotel stacker. The plates were read on Mithras LB 940 provided by Berthold Technologies The data were analysed by non-linear regression analysis of binding curves, using the Windows™ program GraphPad™ Prism (GraphPad Software, USA). […]
For orientation: Cyclic AMP is a second messenger, typically raised through Gs and lowered through Gi signalling.

pEC50: −log10 of the molar value.

The pEC50 is the negative decadic logarithm of the EC50, by convention in mol/L. Higher therefore signals a small EC50. For `C[C@@H]1NC(=O)[C@@H]2CSSC[C@H](NC(=O)[C@H](Cc3c[nH]c4ccccc34)NC(=O)[C@H](CCCNC(=N)N[N+](=O)[O-])NC(=O)[C@@H](Cc3ccccc3)NC(=O)[C@H](Cc3c[nH]cn3)NC1=O)C(=O)N[C@@H](C)C(=O)N[C@@H](Cc1c[nH]cn1)C(=O)N[C@H](Cc1ccccc1)C(=O)N[C@@H](CCCNC(=N)N[N+](=O)[O-])C(=O)N[C@@H](Cc1c[nH]c3ccccc13)C(=O)N2` [Chem. 21, c[c[Cys-Ala-His-D-Phe-Arg(NO2)-Trp- Cys]-Ala-His-D-Phe-Arg(NO2)-Trp]], the pEC50 is below 8.40.
